{
  "sequences": {"note": "Sequences of proteins named here, by UniProt entry; tags and fusion partners are left off. Residues count along the entry.", "UniProt P56199, 29-1179": "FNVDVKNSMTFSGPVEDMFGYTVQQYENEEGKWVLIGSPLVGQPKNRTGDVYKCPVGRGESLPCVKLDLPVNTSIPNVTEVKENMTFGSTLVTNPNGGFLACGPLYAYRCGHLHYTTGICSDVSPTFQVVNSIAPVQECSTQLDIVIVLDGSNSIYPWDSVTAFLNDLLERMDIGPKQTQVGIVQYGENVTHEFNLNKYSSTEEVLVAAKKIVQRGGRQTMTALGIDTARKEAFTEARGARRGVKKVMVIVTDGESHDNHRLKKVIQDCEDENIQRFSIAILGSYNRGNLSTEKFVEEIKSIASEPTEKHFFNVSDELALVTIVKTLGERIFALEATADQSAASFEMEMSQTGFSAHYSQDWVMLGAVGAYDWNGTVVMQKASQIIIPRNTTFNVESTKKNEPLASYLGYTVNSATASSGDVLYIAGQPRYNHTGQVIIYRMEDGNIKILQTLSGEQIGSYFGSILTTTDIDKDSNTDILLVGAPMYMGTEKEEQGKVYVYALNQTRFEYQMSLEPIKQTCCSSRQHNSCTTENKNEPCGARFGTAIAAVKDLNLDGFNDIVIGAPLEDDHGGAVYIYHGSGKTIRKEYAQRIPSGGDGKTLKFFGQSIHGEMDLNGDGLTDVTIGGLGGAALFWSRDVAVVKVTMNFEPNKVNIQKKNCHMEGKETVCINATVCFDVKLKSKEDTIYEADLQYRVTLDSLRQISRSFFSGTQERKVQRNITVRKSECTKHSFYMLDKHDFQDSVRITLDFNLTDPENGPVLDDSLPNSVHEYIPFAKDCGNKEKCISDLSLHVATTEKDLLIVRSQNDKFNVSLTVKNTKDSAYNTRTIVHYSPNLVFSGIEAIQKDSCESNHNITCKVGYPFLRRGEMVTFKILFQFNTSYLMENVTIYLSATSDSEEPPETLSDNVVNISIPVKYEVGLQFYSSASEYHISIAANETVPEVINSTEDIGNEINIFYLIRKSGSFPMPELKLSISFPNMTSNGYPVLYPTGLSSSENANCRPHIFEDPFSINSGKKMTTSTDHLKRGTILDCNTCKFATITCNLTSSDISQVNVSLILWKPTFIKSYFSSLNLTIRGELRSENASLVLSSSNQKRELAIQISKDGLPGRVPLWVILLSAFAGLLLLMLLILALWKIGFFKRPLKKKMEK"},
  "source": "patent US20030186334A1",
  "about": "“KTS-disintegrins” (Temple University - Of the Commonwealth System of Higher …, priority 2001, published 2003)",
  "target": "T1, α1β1 integrin (Homo sapiens, UniProt P05556+P56199)",
  "T1 construct": "expressed in transfected cells; host or cells: α1K562 cells",
  "assay": "adhesion of α1K562 cells to immobilized collagen IV",
  "assay_type": "cell-based",
  "experimental": "The ability of EP-obtustatin and the synthetic peptides described above to inhibit activity of the α1β1 integrin was then assayed. Collagen IV (0.2 μg/well) in 0.02 M acetic acid was immobilized by incubation overnight at 4° C. on a 96-well plate. Plates were then blocked with 1% (w/v) BSA (bovine serum albumin) in Hank's Balanced Salt Solution (HBSS) containing 3 mM Mg^2+ at room temperature for 1-2 hours to prevent cells from non-specifically binding to the plates. α1K562 cells were labeled by incubation with 12.5 μM 5-chloromethylfluorescein diacetete (CMFDA) in HBSS for 15 minutes at 37° C. CMFDA labeled α1K562 cells were then pelleted, washed and resuspended in HBSS buffer containing 3 mM Mg^2+ and 1% BSA. […] Fluorescent CMFDA released by lysis of adherent cells in a given well was read using a Cytofluor 2350 fluorescence plate reader.\nAdhesive ligands for the selected integrins consisted of collagen IV (0.2 μg/well), collagen I, fibronectin, or vascular cell adhesion molecule-1 (VCAM-1). […] Fluorescent CMFDA released by lysis of adherent cells in a given well was read using a Cytofluor 2350 fluorescence plate reader.\nThe effect of obtustatin, viperisrastatin, echistatin, and eristostatin on the binding of selected integrins to their adhesive ligands was evaluated using the cell adhesion assay described in Example 6. […]",
  "data": [
    {"smiles": "CC(C)C[C@H](NC(=O)[C@H](CO)NC(=O)[C@@H](N)[C@@H](C)O)C(=O)N[C@H](C(=O)N[C@@H](CO)C(=O)O)[C@@H](C)O", "note": "[TSLTS]", "values": [
      {"measurement": "IC50", "value": 3.5, "unit": "mM"}
    ]}
  ]
}
